Values of other authors as cited in patent US20190119649A1, “METHODS FOR GENERATING AUGMENTED STEM CELL-DERIVED BETA CELLS AND USES THEREOF” (President and Fellows of Harvard College, priority 2014, published 2019).

By UniProt entry, the sequences of proteins in these tests, tags left out. Residues count along the entry.
UniProt P30530, 26-894 limits assumed: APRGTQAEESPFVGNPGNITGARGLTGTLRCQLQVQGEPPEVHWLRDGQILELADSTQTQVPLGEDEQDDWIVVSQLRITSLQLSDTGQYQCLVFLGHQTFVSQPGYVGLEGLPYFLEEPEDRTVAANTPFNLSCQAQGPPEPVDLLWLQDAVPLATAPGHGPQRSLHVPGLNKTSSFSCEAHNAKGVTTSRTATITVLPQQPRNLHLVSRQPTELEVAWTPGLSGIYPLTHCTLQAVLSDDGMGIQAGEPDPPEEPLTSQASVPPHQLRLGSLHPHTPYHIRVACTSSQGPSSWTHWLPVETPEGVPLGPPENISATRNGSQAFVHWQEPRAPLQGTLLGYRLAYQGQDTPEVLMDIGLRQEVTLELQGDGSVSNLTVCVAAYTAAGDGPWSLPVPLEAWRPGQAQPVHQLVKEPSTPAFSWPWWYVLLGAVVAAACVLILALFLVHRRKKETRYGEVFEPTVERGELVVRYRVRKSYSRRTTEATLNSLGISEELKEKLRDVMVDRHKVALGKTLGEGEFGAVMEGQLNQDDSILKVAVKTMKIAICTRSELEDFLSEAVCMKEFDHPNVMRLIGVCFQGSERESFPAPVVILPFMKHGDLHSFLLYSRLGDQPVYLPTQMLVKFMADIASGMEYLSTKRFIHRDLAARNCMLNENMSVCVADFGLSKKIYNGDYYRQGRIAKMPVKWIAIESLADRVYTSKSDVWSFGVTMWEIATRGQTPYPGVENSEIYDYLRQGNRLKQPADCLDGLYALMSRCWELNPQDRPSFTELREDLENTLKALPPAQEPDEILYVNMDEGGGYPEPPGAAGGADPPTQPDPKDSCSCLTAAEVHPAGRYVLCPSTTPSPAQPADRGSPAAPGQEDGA

Molecular target: T1, AXL kinase (Homo sapiens, UniProt P30530)
Settings: amide- and sulfonamide-containing inhibitors, Table 2; cited from earlier work

**Q.** Which Binding energy does the source give for `CN1CCN(Cc2ccc(Nc3ncc(Cl)c(-c4ccc(F)cc4S(=O)(=O)N(C)C)n3)cc2)CC1` here?
**A.** -41.87 kcal/mol

**Q.** With `CN1CCN(Cc2ccc(Nc3ncc(Cl)c(Nc4ccc(F)cc4S(=O)(=O)N4CCCC4)n3)cc2)CC1` as the compound, how does the Binding energy read?
**A.** -37.87 kcal/mol

**Q.** Which Binding energy does the source give for `CN1CCN(Cc2ccc(Nc3ncc(Cl)c(Nc4ccccc4C(=O)NC4CC4)n3)cc2)CC1` here?
**A.** -39.21 kcal/mol

**Q.** With `CN1CCN(Cc2ccc(Nc3ncc(Cl)c(Nc4ccc(Cl)cc4S(=O)(=O)N4CCCC4)n3)cc2)CC1` as the compound, how does the Binding energy read?
**A.** -28.21 kcal/mol

**Q.** For `CN1CCN(Cc2ccc(Nc3ncc(Cl)c(Nc4ccc(O)cc4S(=O)(=O)N4CCCC4)n3)cc2)CC1`, which Binding energy is on record?
**A.** -29.21 kcal/mol

**Q.** With `CN1CCN(Cc2ccc(Nc3ncc(F)c(-c4ccc(F)cc4S(=O)(=O)N4CCCC4)n3)cc2)CC1` as the compound, how does the Binding energy read?
**A.** -29.67 kcal/mol

**Q.** For `CN1CCC(N(C)c2ccc(Nc3ncc(Cl)c(Nc4ccccc4S(=O)(=O)N(C)C)n3)cc2)CC1`, which Binding energy is on record?
**A.** -36.84 kcal/mol

**Q.** Which Binding energy does the source give for `CN1CCN(Cc2ccc(Nc3ncc(C(F)(F)F)c(Nc4ccccc4C(=O)N(C)C)n3)cc2)CC1` here?
**A.** -26.21 kcal/mol

**Q.** With `CN1CCN(c2ccc(Nc3ncc(Cl)c(Nc4ccccc4S(=O)(=O)N(C)C)n3)cc2)CC1` as the compound, how does the Binding energy read?
**A.** -29.34 kcal/mol

**Q.** For `CN1CCN(Cc2ccc(Nc3ncc(Cl)c(-c4ccc(F)cc4S(=O)(=O)N4CCCC4)n3)cc2)CC1`, which Binding energy is on record?
**A.** -40.96 kcal/mol

**Q.** Which Binding energy does the source give for `CN1CCN(Cc2ccc(Nc3ncc(Cl)c(Nc4ccc(F)cc4S(=O)(=O)N4CCOCC4)n3)cc2)CC1` here?
**A.** -41.26 kcal/mol

**Q.** For `CN1CCN(Cc2ccc(Nc3ncc(Cl)c(Nc4ccccc4S(=O)(=O)N4CCCC4)n3)cc2)CC1`, which Binding energy is on record?
**A.** -49.89 kcal/mol

**Q.** Which Binding energy does the source give for `Cc1cnc(Nc2ccc(CN3CCN(C)CC3)cc2)nc1-c1ccc(F)cc1S(=O)(=O)N1CCCC1` here?
**A.** -29.14 kcal/mol

**Q.** Which Binding energy does the source give for `CN1CCN(Cc2ccc(Nc3ncc(Cl)c(Nc4ccccc4C(=O)N(C)C)n3)cc2)CC1` here?
**A.** -33.29 kcal/mol

**Q.** With `CN1CCN(Cc2ccc(Nc3ncc(Cl)c(Nc4ccccc4C(=O)N4CCCC4)n3)cc2)CC1` as the compound, how does the Binding energy read?
**A.** -38.12 kcal/mol

Same assay, conditions: docking parameter, 5-alkylpyrimidine-based inhibitors, Table 1; cited from earlier work

**Q.** With `CN1CCN(Cc2ccc(Nc3ncc(C4CC4)c(-c4ccc(F)c(Cl)c4)n3)cc2)CC1` as the compound, how does the Binding energy read?
**A.** -26.92 kcal/mol

**Q.** With `Cc1cnc(Nc2ccc(N(C)C3CCN(C)CC3)cc2)nc1-c1ccc(F)c(Cl)c1` as the compound, how does the Binding energy read?
**A.** -34.26 kcal/mol

**Q.** For `Cc1cnc(Nc2ccc(OCCN3CCCCC3)cc2)nc1-c1ccc(F)c(Cl)c1`, which Binding energy is on record?
**A.** -21.81 kcal/mol

**Q.** For `Cc1cnc(Nc2ccc(CN3CCN(C)CC3)cc2)nc1-c1ccc(F)c(Cl)c1`, which Binding energy is on record?
**A.** -38.24 kcal/mol

**Q.** With `Cc1cnc(Nc2ccc(N3CCN(C)CC3)c(F)c2)nc1-c1ccc(F)cc1` as the compound, how does the Binding energy read?
**A.** -31.24 kcal/mol

**Q.** Which Binding energy does the source give for `Cc1cnc(Nc2ccc(N3CCN(C)CC3)c(F)c2)nc1-c1ccc(F)c(Cl)c1` here?
**A.** -26.67 kcal/mol

Molecular target: T1, AXL kinase
Settings: read-out: AXL kinase IC50; 5-alkylpyrimidine-based inhibitors, Table 1; cited from earlier work

**Q.** With `Cc1cnc(Nc2ccc(N(C)C3CCN(C)CC3)cc2)nc1-c1ccc(F)c(Cl)c1` as the compound, how does the IC50 read?
**A.** 420 nM

**Q.** For `Cc1cnc(Nc2ccc(CN3CCN(C)CC3)cc2)nc1-c1ccc(C(C)(C)C#N)cc1`, which IC50 is on record?
**A.** 290 nM

**Q.** For `Cc1cnc(Nc2ccc(CN3CCN(C)CC3)cc2)nc1-c1cccc(Cl)c1`, which IC50 is on record?
**A.** 440 nM

Same assay, conditions: read-out: AXL kinase IC50; amide- and sulfonamide-containing inhibitors, Table 2; cited from earlier work

**Q.** For `CN1CCN(Cc2ccc(Nc3ncc(Cl)c(Nc4ccc(O)cc4S(=O)(=O)N4CCCC4)n3)cc2)CC1`, which IC50 is on record?
**A.** 1320 nM

**Q.** For `CN1CCN(Cc2ccc(Nc3ncc(F)c(-c4ccc(F)cc4S(=O)(=O)N4CCCC4)n3)cc2)CC1`, which IC50 is on record?
**A.** 1150 nM

**Q.** With `CN1CCN(Cc2ccc(Nc3ncc(Cl)c(N(C)c4ccc(F)cc4S(=O)(=O)N4CCCC4)n3)cc2)CC1` as the compound, how does the IC50 read?
**A.** 3910 nM

System: PSN-1
Settings: read-out: Cell viability IC50 PSN-1; PSN-1 cells; cited from earlier work

**Q.** For `CN1CCN(Cc2ccc(Nc3ncc(Cl)c(Nc4ccccc4S(=O)(=O)N(C)C)n3)cc2)CC1`, which IC50 is on record?
**A.** 6 nM
